Like-named read-outs stand apart in the source and are kept apart here.
Settings: 1 month
Experimental: The solid state stability of the drug substance was determined by storing approximately 1.0 g of the material in a glass bottle at a) 40° C./75% Relative Humidity (RH), open exposure, for 1 month and b) at 50° C., closed, for 1 month. The material was assayed by HPLC for final content and degradation products in both cases.

CN(CCOc1ccc(CC2SC(=O)NC2=O)cc1)c1ccccn1.O=[N+]([O-])O (stereo not shown) [Nitrate, 5-[4-[2-(N-methyl-N-(2-pyridyl)amino)ethoxy]benzyl]thiazolidine-2,4-dione nitrate]
Solid state stability: HPLC assay (40° C./75% RH, open exposure): 99 % initial | Solid state stability: degradation (40° C./75% RH, open exposure): No significant degradation observed | Solid state stability: HPLC assay (50° C., closed): 99 % initial | Solid state stability: degradation (50° C., closed): No significant degradation observed

Reference: patent US20040029926A1, “Thiazolidinone nitrate salt” (priority 2000, published 2004)
